Chains of the proteins cited; added tags and fusions are not shown.
UniProt O09106, whole entry: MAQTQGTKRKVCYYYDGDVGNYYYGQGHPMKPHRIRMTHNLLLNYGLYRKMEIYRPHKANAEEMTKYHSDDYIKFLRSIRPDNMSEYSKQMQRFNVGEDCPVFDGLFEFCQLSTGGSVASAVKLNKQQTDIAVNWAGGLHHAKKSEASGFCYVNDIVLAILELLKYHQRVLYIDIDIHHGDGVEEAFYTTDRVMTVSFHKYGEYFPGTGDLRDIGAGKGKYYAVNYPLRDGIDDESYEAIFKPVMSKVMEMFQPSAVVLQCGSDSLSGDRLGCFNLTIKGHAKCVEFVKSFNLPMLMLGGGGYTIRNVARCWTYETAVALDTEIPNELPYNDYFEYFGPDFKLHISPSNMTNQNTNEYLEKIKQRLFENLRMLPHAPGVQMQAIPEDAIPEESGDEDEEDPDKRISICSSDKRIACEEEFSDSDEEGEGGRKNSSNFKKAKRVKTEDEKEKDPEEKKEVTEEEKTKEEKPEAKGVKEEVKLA

According to ChEMBL document CHEMBL1135928, “Binding mode analysis of 3-(4-benzoyl-1-methyl-1H-2-pyrrolyl)-N-hydroxy-2-propenamide: a new synthetic histone deacetylase inhibitor inducing histone hyperacetylation, growth inhibition, and terminal cell differentiation” (J Med Chem, 2002):

Tests used:
Histone deacetylase 1 [1] = target: T1, Histone deacetylase 1 (Mus musculus, UniProt O09106); assay: In vitro for anti-HDAC1 (Histone deacetylase 1) activity in mouse A20 cells; format: cell-based
Histone deacetylase HD2 = target: T2, Histone deacetylase HD2 (Zea mays, UniProt Q94F81); assay: In vitro for anti-HD2 (Histone deacetylase 2) activity in maize
T2 sequence (Q94F81 whole entry): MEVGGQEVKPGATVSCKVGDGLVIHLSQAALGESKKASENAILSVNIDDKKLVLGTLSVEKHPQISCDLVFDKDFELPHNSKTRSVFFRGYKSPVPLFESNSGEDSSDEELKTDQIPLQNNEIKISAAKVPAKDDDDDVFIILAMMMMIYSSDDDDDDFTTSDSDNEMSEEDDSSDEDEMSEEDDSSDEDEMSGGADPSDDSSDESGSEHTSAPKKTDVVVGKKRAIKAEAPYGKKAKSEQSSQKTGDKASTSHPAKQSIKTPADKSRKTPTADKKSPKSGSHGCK

Histone deacetylase 1 [2] = target: T1, Histone deacetylase 1; assay: Binding affinity towards HDAC1 (Histone deacetylase 1) in mouse A20 cells, expressed as binding constant (pKi); format: cell-based

| Compound | IC50 (Histone deacetylase 1 [1]) | IC50 (Histone deacetylase HD2) | Ki (Histone deacetylase 1 [2]) |
| --- | --- | --- | --- |
| CC(/C=C/C(=O)NO)=C\[C@@H](C)C(=O)c1ccc(N(C)C)cc1 [TRICHOSTATIN] | 2 nM | 7 nM | – |
| O=C(CCCCCCC(=O)Nc1ccccc1)NO [VORINOSTAT] | – | – | 67.6 nM |
